According to patent publication EP3636255A1 (priority 2018, dated 2020):

Legend:
[1] = test system: CCT/TRiC temperature-sensitive mutants; details: compared to WT expressing CerS3 or control thermo-sensitive strains; 3 days at 24°C
CCT/TRiC = experiment: Chemoproteomic target identification by photo-cross-linking and biotin-streptavidin pull-down in the yeast cytosolic fraction; details: UV 365 nm, biotin-streptavidin pull-down

SMILES: CCCCCCCCCCCCCCCC(O)C(C)N (centres unmarked) [Formula 1, 2-aminooctadecan-3-ol]
- sensitivity of temperature sensitive CCT/TRiC mutants expressing CerS3 [1]: hypersensitivity

SMILES: C#CCCCC1(CCCCCCCCC(=O)N[C@@H](C)[C@H](O)CCCCCCCCCCCCCCC)N=N1 [Formula (II"'), N-((2S,3R)-3-hydroxyoctadecan-2-yl)-9-(3-(pent-4-yn-1-yl)-3H-diazirin-3-yl)nonanamide]
- cross-linking to interacting protein targets, all 8 subunits of CCT/TRiC (CCT/TRiC): cross-linked
